From ChEMBL document CHEMBL1124886, “Electrophilic alpha-methylene-gamma-lactone and isothiocyanate opioid ligands related to etorphine” (1990)

Chains of the proteins cited; added tags and fusions are not shown.
UniProt P79350, whole entry: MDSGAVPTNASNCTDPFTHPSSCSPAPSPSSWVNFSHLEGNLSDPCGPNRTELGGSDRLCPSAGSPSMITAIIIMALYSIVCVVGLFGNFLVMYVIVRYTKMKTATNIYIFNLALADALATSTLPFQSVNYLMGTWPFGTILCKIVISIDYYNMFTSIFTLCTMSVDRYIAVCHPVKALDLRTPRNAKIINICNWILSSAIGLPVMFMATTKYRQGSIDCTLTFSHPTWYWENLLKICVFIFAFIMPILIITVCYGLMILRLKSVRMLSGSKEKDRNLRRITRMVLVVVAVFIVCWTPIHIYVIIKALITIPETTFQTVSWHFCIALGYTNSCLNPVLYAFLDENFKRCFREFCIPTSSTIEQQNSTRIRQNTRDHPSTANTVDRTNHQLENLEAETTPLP

Target: Mu-type opioid receptor (Bos taurus, UniProt P79350)
Assay: Inhibition of 0.5 nM [3H]- Bremazocine binding to Opioid receptor mu 1 of bovine striatum membrane

Molecule CO[C@]12C=C[C@@]3(CC1[C@@H](C)N=C=S)C1Cc4ccc(O)c5c4C3(CCN1CC1CC1)[C@H]2O5 (stereo partly specified) has a pIC50 of 9.12.
For CO[C@]12CC[C@@]3(C[C@@H]1C(C)(C)O)[C@H]1Cc4ccc(O)c5c4[C@@]3(CCN1CC1CC1)[C@H]2O5, the pIC50 was 8.85.
With CO[C@]12C=C[C@@]3(CC1[C@H](C)N=C=S)[C@H]1Cc4ccc(O)c5c4[C@@]3(CCN1CC1CC1)[C@H]2O5 (stereo partly specified) the pIC50 was 9.49.
For COc1ccc2c3c1O[C@@H]1[C@]34CCN(CC3CC3)[C@H](C2)[C@]42C=C[C@@]1(OC)C([C@H](C)N=C=S)C2 (stereo partly specified), the pIC50 was 6.77.
With COc1ccc2c3c1O[C@@H]1C34CCN(CC3CC3)C(C2)[C@]42C=C[C@@]1(OC)C([C@@H](C)N=C=S)C2 (stereo partly specified) the pIC50 was 6.36.
C=C1C[C@H]([C@H]2C[C@@]34C=C[C@]2(OC)[C@@H]2Oc5c(O)ccc6c5[C@@]23CCN(CC2CC2)[C@@H]4C6)OC1=O was tested, and the pIC50 was 9.00.

pIC50: −log10 of the molar value.
